The values that follow come from patent US11197906B2, “Methods of lowering blink reflex for the treatment of dry eye disease” (Tufts Medical Center, priority 2016, dated 2021).

The target of the assay is T1, mouse CMKLR1 (Mus musculus, UniProt P97468).
T1 construct: expressed in transfected cells; host or cells: HEK293
T1 sequence (P97468 1-371): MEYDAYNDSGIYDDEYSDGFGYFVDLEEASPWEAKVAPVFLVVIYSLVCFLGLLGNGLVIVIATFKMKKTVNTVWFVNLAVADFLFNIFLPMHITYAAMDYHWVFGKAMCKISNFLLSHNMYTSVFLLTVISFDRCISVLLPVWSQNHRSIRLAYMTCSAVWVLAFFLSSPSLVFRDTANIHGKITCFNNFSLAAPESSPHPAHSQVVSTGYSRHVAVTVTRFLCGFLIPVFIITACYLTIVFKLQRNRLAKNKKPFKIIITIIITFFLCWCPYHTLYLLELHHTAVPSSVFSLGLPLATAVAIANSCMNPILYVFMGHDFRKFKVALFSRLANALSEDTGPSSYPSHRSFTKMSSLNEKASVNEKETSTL
The assay is described as follows: Luciferase assay in transfected HEK293 cells, mouse CMKLR1. Type of assay: cell-based. The conditions noted are these: membrane tethered construct, FIG. 4B. Here is the method: FIG. 1 is a schematic depicting the luciferase assay. HEK293 cells were transfected for 24 hours with cDNAs encoding: a) GPCR, b) a tethered ligand (where applicable), c) a luciferase reporter gene, and d) β-galactosidase (transfection control). Luciferase activity was measured using Steadylite reagent. Luciferase data were normalized to β-galactosidase values.
FIGS. 4A-4B are graphs showing that membrane tethered chemerin activates CMKLR1.
FIGS. 5A-5D are graphs showing the luciferase activity of l-Chem149-157 and s-Chem149-157.

“tChem149-157: membrane tethered chemerin construct encoding truncated chemerin”: the “activation of mouse CMKLR1” value is “activate”.
